{"source": "patent US4198507A", "origin": "cited, not measured here", "details": "prior art; cited from earlier work", "data": [{"substance": "theobromine calcium salicylate", "values": [{"measurement": "water solubility (in words)", "result": "insoluble"}]}]}
